Measurements: ChEMBL document CHEMBL1134160 (Bioorg Med Chem Lett, 2001)

Amino acid sequences for entries named in this document (tags omitted).
UniProt P49582, whole entry: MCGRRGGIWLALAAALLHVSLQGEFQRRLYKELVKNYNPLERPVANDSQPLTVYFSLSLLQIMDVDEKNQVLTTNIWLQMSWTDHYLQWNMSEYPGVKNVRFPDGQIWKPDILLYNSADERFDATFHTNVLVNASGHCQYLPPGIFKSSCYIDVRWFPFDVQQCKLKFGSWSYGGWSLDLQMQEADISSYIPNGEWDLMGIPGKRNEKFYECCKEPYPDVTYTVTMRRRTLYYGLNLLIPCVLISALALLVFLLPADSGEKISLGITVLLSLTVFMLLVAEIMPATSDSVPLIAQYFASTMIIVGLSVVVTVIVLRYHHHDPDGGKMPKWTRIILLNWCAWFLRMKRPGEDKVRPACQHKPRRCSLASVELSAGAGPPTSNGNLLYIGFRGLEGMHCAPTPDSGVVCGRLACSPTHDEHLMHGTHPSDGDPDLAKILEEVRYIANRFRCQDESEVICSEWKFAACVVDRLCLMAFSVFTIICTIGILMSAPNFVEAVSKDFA

Columns and labels:
[1] = biological target: Neuronal acetylcholine receptor subunit alpha-7 (Mus musculus) (UniProt P49582); assay: Functional activity is expressed as percent efficacy for alpha-7 nAChR.
[2] = biological target: Neuronal acetylcholine receptor subunit alpha-7 (Mus musculus, UniProt P49582); assay: In vitro Binding affinity towards alpha-7 nAChR was determined

Compound CN1[C@@H]2CC[C@H]1C[C@@H](OC(=O)c1c[nH]c3ccccc13)C2 [TROPISETRON] has an Efficacy [1] of 36% and a Ki [2] of 6.9 nM.
